Measured values reported in ChEMBL document CHEMBL5726080, “Substituted piperidine compounds and their use as orexin receptor modulators” (2017).

Assay: Receptor Radioligand Binding Studies: Human Embryonic Kidney 293 cells (HEK293) stably expressing rat orexin 1 receptor (Genebank accession number NM_001525) or Chinese ovary cells (CHO) stably expressing human orexin 1 receptor (Genebank accession number NM_001526) were grown to confluency in DMEM (Hyclone, cat #SH30022), 10% FBS, 1×Pen/Strep, 1× sodium pyruvate, 10 mM HEPES, 600 μg/mL G418 and DMEM/F12 (Gibco, Cat #11039), 10% FBS, 1×Pen/Strep, 600 μg/mL G418 media, respectively on 150 cm2 tissue culture plates, washed with 5 mM EDTA in PBS (HyClone Dulbecco's Phosphate Buffered Saline 1× with Calcium and Magnesium, Cat #SH30264.01, hereafter referred to simply as PBS) and scraped into 50 ml tubes. After centrifugation (2K×G, 5 min at 4° C.), the supernatant was aspirated and the pellets frozen and stored at −80° C. Cells were resuspended in PBS in the presence of 1 tablet of protease inhibitor cocktail (Roche, Cat. #11836145001) per 50 mL. Each cell pellet from a 15 cm plate was resuspended in 10 mL, stored on ice, and homogenized for 45 sec prior to addition to the reactions. […]

**Q.** With `Cc1cnc(C(=O)N2CCC[C@@H](N(C)c3nc4ccccc4o3)[C@@H]2C)c(-n2nccn2)c1` (relative stereo) as the molecule, how does the pKi read?
**A.** 5.60

pKi: −log10 of the molar value.
